Sequences of proteins named here, by UniProt entry; tags and fusion partners are left off.
UniProt P42336, whole entry: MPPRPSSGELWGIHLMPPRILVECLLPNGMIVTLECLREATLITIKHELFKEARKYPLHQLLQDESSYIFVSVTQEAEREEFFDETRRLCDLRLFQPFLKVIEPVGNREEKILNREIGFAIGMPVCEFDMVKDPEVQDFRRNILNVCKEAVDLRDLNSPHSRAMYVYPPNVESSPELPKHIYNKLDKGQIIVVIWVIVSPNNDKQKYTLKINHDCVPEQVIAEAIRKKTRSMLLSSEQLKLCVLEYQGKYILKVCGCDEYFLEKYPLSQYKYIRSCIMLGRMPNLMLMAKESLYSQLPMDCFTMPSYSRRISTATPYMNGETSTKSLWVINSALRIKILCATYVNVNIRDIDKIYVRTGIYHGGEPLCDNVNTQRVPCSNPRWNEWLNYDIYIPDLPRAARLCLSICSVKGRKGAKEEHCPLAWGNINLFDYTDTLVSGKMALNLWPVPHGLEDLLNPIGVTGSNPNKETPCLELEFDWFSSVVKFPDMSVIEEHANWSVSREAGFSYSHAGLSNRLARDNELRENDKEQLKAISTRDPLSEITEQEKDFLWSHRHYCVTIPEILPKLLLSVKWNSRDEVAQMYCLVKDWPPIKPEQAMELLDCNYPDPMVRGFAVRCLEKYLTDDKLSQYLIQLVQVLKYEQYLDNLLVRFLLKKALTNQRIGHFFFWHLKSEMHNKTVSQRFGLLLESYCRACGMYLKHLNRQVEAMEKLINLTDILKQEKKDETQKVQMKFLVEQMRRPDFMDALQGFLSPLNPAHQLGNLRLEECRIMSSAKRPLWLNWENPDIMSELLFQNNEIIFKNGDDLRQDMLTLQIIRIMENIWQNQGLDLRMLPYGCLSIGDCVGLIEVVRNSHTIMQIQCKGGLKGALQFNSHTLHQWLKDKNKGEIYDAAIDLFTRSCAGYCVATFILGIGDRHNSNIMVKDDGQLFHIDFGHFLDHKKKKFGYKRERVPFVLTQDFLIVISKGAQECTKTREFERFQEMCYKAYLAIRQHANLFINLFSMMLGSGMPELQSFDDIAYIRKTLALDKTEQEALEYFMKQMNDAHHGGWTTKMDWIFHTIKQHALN

According to ChEMBL document CHEMBL3769318, “The Rational Design of Selective Benzoxazepin Inhibitors of the α-Isoform of Phosphoinositide 3-Kinase Culminating in the Identification of (S)-2-((2-(1-Isopropyl-1H-1,2,4-triazol-5-yl)-5,6-dihydrobenzo[f]imidazo[1,2-d][1,4]oxazepin-9-yl)oxy)propanamide (GDC-0326)” (J Med Chem, 2016):

Target: Phosphatidylinositol 4,5-bisphosphate 3-kinase catalytic subunit alpha isoform (Homo sapiens, UniProt P42336)
Experiment: Inhibition of recombinant PI3K alpha (unknown origin) using PIP2 as substrate by fluorescence polarization assay
Conditions: read-out: Ki(app)

Cc1nc(-c2cn3c(n2)-c2ccc(-c4cnn(C(C)(C)C(N)=O)c4)cc2OCC3)n(C(C)C)n1 [TASELISIB] was tested, and the Ki was 0.3 nM.
